Assay results as given in PubChem BioAssay AID504706 (National Center for Advancing Translational Sciences (NCATS), 2011).
Only a part is listed here, and it is no random draw. Inconclusive results are not listed. Calls of active or inactive are those of the source. The call rests on the fitted dose curve; in most records, active means well fitted activation curve with a large enough effect; inconclusive means small, poorly fitted or top-dose-only effect; inactive means no such curve, though single readings can be large or run the other way.

Experiment: qHTS assay for re-activators of p53 using a Luc reporter; further: % of control where 0% means no effect; nearly all actives have a fitted effect of over 45% in size
Settings: H1299 p53-A138V BP100-luciferase reporter, luminescence, 24 h; at 92.2 µM (top of the series)
Text: The p53 tumor suppressor plays a key role in suppression of tumorigenesis and in human carcinogenesis. It is frequently found inactivated in human cancers, mainly by point mutation. These point mutations are found in a wide variety of human cancers and a majority of them affect the DNA binding domain of the protein. The point mutations either alter native p53 conformation or abolish DNA contact. Additionally, cancer cells with p53 mutations are more resistant to chemo-radiation therapies. In order to find activators to reactivate this important protein, a cell-based screen for p53-dependent luciferase-reporter expression was developed. A p53-null H1299 lung cancer cell line was stably co-transfected with a temperature sensitive p53 mutant, p53-A138V, and a p53-responsive BP100-luciferase reporter. This cell model has previously been characterized in a gene chip profiling experiment for p53 activation. By lowering the culture temperature from 37 deg C (mutant p53 conformation) to 32 deg C (w.t. p53 conformation), a 30-60 fold increase in activation of luciferase activity is observed. At assay temperate, 37 deg C, basal reporter expression is very low and after the addition of detection reagent, a luminescent read-out is carried out. NIH Chemical Genomics Center [NCGC] NIH Molecular Libraries Probe Production Centers Network [MLPCN] MLPCN Grant: DA031088-01A1 Assay Provider (PI): Yi Sung, University of Michigan at Ann Arbor
5ul of 1000 cells per well are dispensed in all wells except column 4, into white solid-bottom TC-treated Kalypsys plates. The cells are kept in Opti-MEM and supplemented with 10% FBS and dispensed using a Multidrop (Thermo). Then using the Kalypsys pin-tool, 23nl of compounds are pinned. The compounds are starting concentration at 10mM, with 1:5 dilution, 4 points, and the control compound nocodazole is pinned in column 1 at 25mM, 1:3 dilution, in duplicate, 25mM nocodazole is pinned in column 2. Please note, all concentrations are working concentrations. 5ul of 1pM purified luciferase enzyme is dispensed using the Kalypsys dispenser in column 4. Plates are incubated for 24 hrs at 37 deg C, 5% CO2, and 95% humidity. Then 4ul of the detection reagent Amplite (ABD Bioquest) is added using the Kalypsys dispenser. Plates are incubated for 10 min at ambient room temperature and are then read on the ViewLux (Perkin Elmer) using a clear filter for a luminescent read-out.

SMILES | activity change, positive = activation
Cc1cc(SC(NC(=O)c2ccccc2)C(Cl)(Cl)Cl)nc(C(C)C)n1 (stereo not given) | inactive: 12%
O=P1(Nc2ncccn2)COc2ccccc2OC1 | inactive: -0.87%
O=[As](O)(c1cccs1)c1cccs1 | inactive: 1.16%
Cc1ccc(OCC(=O)OC2CN3CCC2CC3)cc1 (stereo not given) | inactive: 13.2%
O=P1(Nc2ccc(Br)cn2)COc2ccccc2OC1 | inactive: -3.15%
NS(=O)(=O)c1cccc(NC(=O)COC(=O)C(O)(c2ccccc2)c2ccccc2)c1 | inactive: -1.2%
Nc1cccc([As](=O)(O)c2ccccc2)c1 | inactive: -0.754%
Cc1nn(-c2ccccc2)c2c1P(=O)(N1CCOCC1)N(C)C(c1ccccc1)=N2 (stereo not given) | inactive: -6.76%
CC1CCC(C(C)C)C(OP(=O)(Nc2ccccn2)c2ccccc2)C1 (stereo not given) | inactive: -3.97%
Cc1ccc(C(=O)OC2CN3CCC2CC3)cc1 (stereo not given) | inactive: -4.35%
O=C(/C=C/c1ccccc1)OC1CN2CCC1CC2 (stereo not given) | inactive: 2.9%
CN(C)C1(CNC(=O)c2ccc(S(C)(=O)=O)cc2)CCCCC1 | inactive: -1.05%
COc1ccccc1CNC(=O)COC(=O)C(O)(c1ccccc1)c1ccccc1 | inactive: -4.32%
O=[As](O)(c1ccccc1Br)c1ccccc1Br | inactive: -4.32%
CC(C)/C=N\N=C(\N)N[N+](=O)[O-] | inactive: 9.67%
CCOP(=O)(Nc1ccc(C)cn1)OCC | inactive: 0.302%
O=P1(Nc2ccccn2)COc2ccccc2OC1 | inactive: -5.62%
CCOP(=O)(NC(=NC(C)c1ccccc1)NC(C)c1ccccc1)OCC (stereo not given) | inactive: -3.2%
Clc1n[nH]nc1-c1nn[nH][15n]1 | inactive: -2.07%
CC(C)(C)C(=O)NC(Sc1ncccn1)C(Cl)(Cl)Cl (stereo not given) | inactive: 0.803%

SMILES | activity change, positive = activation
CCCOP(=S)(Nc1nc(N)cc(=O)[nH]1)OCCC | inactive: 5.55%
Nc1cccc2c([As](=O)(O)O)cccc12 | inactive: -11.9%
COc1cc(C2NCCC3(OCCO3)C2(C)C)cc(OC)c1OC (stereo not given) | inactive: -2.54%
CCOP(=O)(Nc1cccc2ccccc12)OCC | inactive: -11.8%
O=[As](O)(O)c1cccnc1 | inactive: 4.1%
COc1cc(C(=O)NCC2(N3CCOCC3)CCCCC2)cc(Cl)c1OC(C)C | inactive: 3.32%
CS(=O)(=O)c1ccc(Cl)c(NC(=O)COC(=O)C(O)(c2ccccc2)c2ccccc2)c1 | inactive: -0.347%
O=C(OC1CN2CCC1CC2)c1ccc(Cl)cc1 (stereo not given) | inactive: -5.46%
O=[As](O)(c1cccc(O)c1)c1cccc(O)c1 | inactive: -2.2%
NC(=O)Nc1ccc([As](=O)(O)O)cc1 | inactive: 0.68%
O=[N+]([O-])c1ccc2c(c1)nnn2O | inactive: 5.71%
N#CCCN(C(=O)COC(=O)C(O)(c1ccccc1)c1ccccc1)c1ccc(F)cc1 | inactive: 5.17%
CCOP1(=S)c2c(C)nn(CCC#N)c2N=C(c2ccc(F)cc2)N1C (stereo not given) | inactive: -1.21%
CN(C(=O)Cc1ccccc1)[C@@H]1CC[C@]2(CCCO2)C[C@H]1N1CCCC1 | inactive: -1.34%
CS(=O)(=O)c1cc([N+](=O)[O-])c2no[n+]([O-])c2c1 | inactive: 22.1%
CCOP1(=S)c2c(C)nn(CCC#N)c2N=C(c2ccccc2F)N1C (stereo not given) | inactive: -9.49%
O=P(Nc1nccs1)(Oc1ccccc1)Oc1ccccc1 | inactive: -2.56%
O=P(Nc1nccs1)(c1ccccc1)c1nc2ccccc2s1 (stereo not given) | inactive: -34%
Nc1ccccc1[As](=O)(O)c1ccccc1 | inactive: 6.83%
O=C(O)COc1ccc([As](=O)(O)O)cc1[N+](=O)[O-] | inactive: 0.608%
